Results as given in patent US7585839B2, “Medical uses of intercellular communication facilitating compounds” (Zealand Pharma A/S, priority 2001, dated 2009).
Where “and” joins values, the source holds several entries; their conditions need not be identical. Identical values can stand only once.

Tested on: reentry ventricular tachycardia
Experiment: Ventricular reentry arrhythmias in dogs after coronary artery occlusion
Type: in vivo
Details: second dog, throughout the testing period
Description: Three dogs were studied in the anesthetized, open chest state to facilitate electrode placement for mapping. α-chloralose was given as a bolus (200 mg/kg) and then a constant infusion at 8 mg/kg/hr (dissolved in polyethylene glycol, MW=200). The femoral vein and artery was cannulated for administration of fluid and drugs and for measurement of ascending aortic pressure, respectively.
The sinus node was clamped and the atrial appendage was paced with a programmable stimulator with constant current outputs at two times diastolic threshold. Pacing rate was ≧200 b/min to control heart rates. […] Endocardial Effective Refractory Period (ERP) was measured by the standard extrastimulus technique. Late ventricular diastolic threshold was measured during each intervention; the pacing current was four times threshold.
Test sites were chosen along the shaft of 16 pole needles (J. Kassell, Fayetteville, N.C.); each pole completely surrounds the needle shaft to prevent directionality of needle orientation from recording of adjacent Purkinje strands. Six bipolar electrograms (1 mm spacing) were recorded sequentially down the shaft of the needle by amplifying up to 1000 times, filtering from 3-1300 Hz and recording via oscilloscope during atrial pacing. Four intramural electrograms are recorded on each multipolar needle. […]

Ac-D-Tyr-D-Pro-D-4Hyp-Gly-D-Ala-Gly-NH2 [Compound 2]
Effective refractory period in the two sites of induction, unchanged: 163 ms and 144 ms
